Molecular target: Adrenergic receptor alpha-1 (Rattus norvegicus, UniProt P15823+P23944+P43140)
Assay: Effective dose for contraction of reserpine-pretreated rat vas deferens.
Format: functional

Protein sequences, listed by entry. Tags and fused reporters are not part of them. Lines headed by an entry give the natural chain unless they say otherwise; changes in a name come on top.
UniProt P15823: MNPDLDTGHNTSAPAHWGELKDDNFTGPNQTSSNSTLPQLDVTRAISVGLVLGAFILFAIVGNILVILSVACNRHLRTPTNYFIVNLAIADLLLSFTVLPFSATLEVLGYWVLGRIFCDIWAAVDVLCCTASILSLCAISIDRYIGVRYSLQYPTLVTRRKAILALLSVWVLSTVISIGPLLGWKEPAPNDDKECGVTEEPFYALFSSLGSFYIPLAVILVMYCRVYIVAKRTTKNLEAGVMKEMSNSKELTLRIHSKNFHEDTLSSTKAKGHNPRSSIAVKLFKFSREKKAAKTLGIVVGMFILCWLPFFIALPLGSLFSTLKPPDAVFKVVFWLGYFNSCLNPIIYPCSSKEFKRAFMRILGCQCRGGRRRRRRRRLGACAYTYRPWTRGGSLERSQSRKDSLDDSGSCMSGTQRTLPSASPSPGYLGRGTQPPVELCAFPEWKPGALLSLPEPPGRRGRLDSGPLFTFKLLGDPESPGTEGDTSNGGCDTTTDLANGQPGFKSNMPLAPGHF
UniProt P23944: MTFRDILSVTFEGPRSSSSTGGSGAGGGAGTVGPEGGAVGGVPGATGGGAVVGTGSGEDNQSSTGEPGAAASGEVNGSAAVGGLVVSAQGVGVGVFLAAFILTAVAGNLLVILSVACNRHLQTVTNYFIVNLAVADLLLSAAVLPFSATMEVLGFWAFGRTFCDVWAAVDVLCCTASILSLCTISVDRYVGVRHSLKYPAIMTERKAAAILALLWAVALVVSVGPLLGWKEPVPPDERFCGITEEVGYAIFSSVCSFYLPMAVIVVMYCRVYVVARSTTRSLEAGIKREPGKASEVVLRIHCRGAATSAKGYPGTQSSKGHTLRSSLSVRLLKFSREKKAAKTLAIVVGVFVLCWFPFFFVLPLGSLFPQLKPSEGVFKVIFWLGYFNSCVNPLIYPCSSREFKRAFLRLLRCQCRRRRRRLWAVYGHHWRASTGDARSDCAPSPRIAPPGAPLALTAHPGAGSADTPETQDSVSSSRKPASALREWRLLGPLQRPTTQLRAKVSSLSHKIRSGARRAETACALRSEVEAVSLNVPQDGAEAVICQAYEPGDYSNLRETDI
UniProt P43140: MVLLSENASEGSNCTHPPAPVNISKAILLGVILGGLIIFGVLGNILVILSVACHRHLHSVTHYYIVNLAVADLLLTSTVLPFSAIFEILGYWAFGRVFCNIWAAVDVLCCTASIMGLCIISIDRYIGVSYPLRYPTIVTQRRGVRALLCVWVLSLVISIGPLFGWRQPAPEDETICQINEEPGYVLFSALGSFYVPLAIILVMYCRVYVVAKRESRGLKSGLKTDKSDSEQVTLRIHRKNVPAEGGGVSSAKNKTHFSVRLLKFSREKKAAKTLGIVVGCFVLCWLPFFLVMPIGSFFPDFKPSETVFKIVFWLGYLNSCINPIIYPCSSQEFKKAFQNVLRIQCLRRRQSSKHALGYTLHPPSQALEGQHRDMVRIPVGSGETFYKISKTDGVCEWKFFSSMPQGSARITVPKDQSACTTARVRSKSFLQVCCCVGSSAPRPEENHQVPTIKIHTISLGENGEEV

EC50 | Compound
> 100 µM | CNC[C@H](O)c1ccc(O)c(O)c1 (stereo in doubt; (+)) [EPINEPHRINE]
4.073 µM | CNC[C@H](O)c1ccc(O)c(O)c1 (stereo in doubt; (-)) [EPINEPHRINE]
